By UniProt entry, the sequences of proteins in these tests, tags left out. Where a name states a change or a piece, a line headed by the entry shows the natural chain unless it says otherwise.
UniProt O26010: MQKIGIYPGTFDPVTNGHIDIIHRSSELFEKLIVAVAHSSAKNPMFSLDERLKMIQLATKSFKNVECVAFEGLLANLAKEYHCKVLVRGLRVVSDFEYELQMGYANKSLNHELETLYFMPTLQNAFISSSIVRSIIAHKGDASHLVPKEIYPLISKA

According to paper PMC3764209, “Experimentally Validated Novel Inhibitors of Helicobacter pylori Phosphopantetheine Adenylyltransferase Discovered by Virtual High-Throughput Screening” (PLoS ONE, 2013):

Biological target: T1, phosphopantetheine adenylyltransferase (HpPPAT) (Helicobacter pylori, UniProt O26010)
T1 construct: gene coaD
Assay: biochemical

For `CN(Cc1cnc2nc(N)nc(N)c2n1)c1ccc(C(=O)N[C@H](CCC(=O)O)C(=O)O)cc1` [compound 72440, D-amethopterin], the Kd was 31.2 ± 0.34 µM.
